Literature values as cited in PMC12525602, “Identification of Selective α-Glucosidase Inhibitors via Virtual Screening with Machine Learning” (Molecules, 2025).

System: α-glucosidase
Details: activity label of the modeling dataset, Table S5 (1 = active, 0 = inactive); cited from earlier work

In the case of `COc1cc(/C=C/C(=O)O)ccc1O` [compound 74], the activity is given as 0.
